Test results from US20240393319A1, “FLUORESCENT SENSORS AND METHODS OF MAKING AND USING” (Howard Hughes Medical Institute, priority 2023, published 2024).

Sequences of proteins named here, by UniProt entry; tags and fusion partners are left off.
UniProt P07678, whole entry, stated change not applied: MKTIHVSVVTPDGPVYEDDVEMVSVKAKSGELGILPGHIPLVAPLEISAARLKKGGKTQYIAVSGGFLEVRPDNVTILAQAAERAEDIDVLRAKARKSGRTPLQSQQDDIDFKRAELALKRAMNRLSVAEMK

What was measured:
[1] = molecular target: T1, iATPSnFR2 (L1-VLVG, L2-ICV, A95A, A119L; cpSFGFP inserted in epsilon subunit of Bacillus subtilis PS3 F0-F1 ATPase; SEQ ID NO: 1 / SEQ ID NO: 13) (Bacillus sp. PS3, UniProt P07678); assay: Fluorescence response to ATP; format: biochemical; details: 37° C. and 25° C.
T1 construct: QD to VL at junction, L1-VLVG, L2-ICV; E. coli BL21(DE3)pLysS, Ni-NTA; HaloTag-JFX650 fusion possible
Experimental: ATP titration of iATPSnFR2.A95A.A119L variant at 25° C. (grey) and 37° C. (black). Error bars are s.d. of three technical replicates. Fluorescence was measured in a Cytation 5 plate reader, which has relatively rapid heating.
The sensor shown below was made from (1) insertion of circularly permuted SuperFolder GFP (cpSFGFP; italicized portion of sequence below) into the ATP-binding epsilon subunit of the ATPase from Bacillus subtilis PS 3 (non-italicized portion of sequence below) between amino acids 109 and 110; (2) subsequent mutation of the residues forming the junction between the first half of the APT-binding subunit of the ATPase and the cpSFGFP to VL VG (i.e., the QD residues of the ATP-binding unit were changed to VL, and the SH residues of the cpSFGFP were changed to VG); (3) subsequent addition of residues ICV between the end of the cpSFGFP and residue 110 of the ATP-binding unit; and (4) mutating an amino acid proximal to the ATP binding site, A119, to L. Mutation sites are shown in the sequence below with bolding and double underlining.
All in vitro assays were performed in Mammalian Cell Imaging Buffer unless otherwise noted. iATPSnFR2 equilibrium measurements (affinity, specificity, pH) were performed with 0.2 μM protein in a Tecan Spark fluorimeter with 20 nm bandpass windows and excitation at 485 nm and emission at 535 nm.

[2] = molecular target: T2, iATPSnFR2.A95A.A119L.HaloTag-JFX650 (L1-VLVG, L2-ICV); cpSFGFP inserted in epsilon subunit of Bacillus subtilis PS3 F0-F1 ATPase; mutations A95A, A119L; SEQ ID N (Bacillus sp. PS3, UniProt P07678); assay: ATP/nucleotide titration, binding curve fits
T2 construct: E. coli, Ni-NTA purified
Text: (1A) Artistic rendering of iATPSnFR2.HaloTag made with PyMol. The N-terminal fragment (residues 1-109) of the epsilon subunit of ATPase (orange, based on 2E5Y.PDB) is fused to cpSFGFP (green). The C-terminus of cpSFGFP is fused to the residual ATP-binding helix (residues 110-129) of the epsilon subunit (pink), which itself is fused to HaloTag (cyan). “Linkers” are shown as sticks in yellow. ATP is shown as sticks in black. HaloTag fluorophore is shown as sticks in red. (1B) iATPSnFR2.HaloTag-JFX650 affinity variants titrated with ATP. Grey, S29W.A95K (4 μM); orange, A95K (16 μM), yellow, A95A.A119L (530 μM). (1C-1E) Ratio of green (iATPSnFR2) to red (HaloTag-JFX650) fluorescence in fibroblasts transfected with three affinity variants of iATPSnFR2-HaloTag. Grey, S29W.A95K (high affinity); orange, A95K (medium affinity); yellow, A95A.A119L (low affinity). Cells were incubated for 21 minutes in buffer containing 10 mM glucose, and then switched to buffer containing 10 mM 2-deoxyglucose. (1C) Rho° cells. (1D) Parental LMTK cell line. (1E) Parental cell line treated with both 2-deoxyglucose and oligomycin.
Three variants of iATPSnFR2.HaloTag-JFX650 titrated with ATP (black) and ADP (grey), head-to-head. S29W.A95K (left); A95K (center); A95A.A119L (right). Binding curve fits, in μM, for ATP and ADP are S29W.A95K: 4 μM, 400 μM. A95K: 16 μM, 780 μM. A95A.A119L: 530 μM, 5300 μM.
Three variants of iATPSnFR2.HaloTag-JFX650 titrated with ATP and other NTPs, head-to-head. S29W.A95K (left); A95K (center); A95A.A119L (right). ATP (black), CTP (cyan), GTP (grey), TTP (purple). Binding curve fits, in μM, for ATP, CTP, GTP are S29W.A95K: 20 μM, 50 μM, 430 μM. A95K: 30 μM, 100 μM, 1500 μM. A95A.A119L: 750 µM, ˜10 mM, ˜10 mM.
Purified protein was mixed with 1.1 molar equivalents of JFX650 HaloTag Ligand and incubated at room temperature for 1 hour and then at 4° C. overnight. Excess HaloTag Ligand was removed by gel filtration on a PD-10 column (GE Life Sciences) and re-concentrated by ultrafiltration. […]

SMILES: Nc1ncnc2c1ncn2[C@@H]1O[C@H](COP(=O)(O)OP(=O)(O)OP(=O)(O)O)[C@@H](O)[C@H]1O [ATP]
- ΔF/F and Kd for ATP, temperature dependence [1]: almost identical ΔF/F and Kd for ATP at 37 °C and 25 °C
- Kd ([2]; read-out: affinity for ATP (binding curve fit), FIG. 1B, 5A, 5D): 530 µM
- Kd ([2]; read-out: affinity for ATP (binding curve fit, NTP titration), head-to-head with other NTPs, FIG. 5E): 750 µM
- Kd ([2]; read-out: affinity for ATP, FIG. 1B and 5A): 530 µM

Where two headings read alike, the source gives them in different places.
